Measured values reported in patent US20250388669A1 (published 2025).

T1: B7H3 (human, UniProt Q5ZPR3 29-466, limits assumed)
T1 sequence (looked up): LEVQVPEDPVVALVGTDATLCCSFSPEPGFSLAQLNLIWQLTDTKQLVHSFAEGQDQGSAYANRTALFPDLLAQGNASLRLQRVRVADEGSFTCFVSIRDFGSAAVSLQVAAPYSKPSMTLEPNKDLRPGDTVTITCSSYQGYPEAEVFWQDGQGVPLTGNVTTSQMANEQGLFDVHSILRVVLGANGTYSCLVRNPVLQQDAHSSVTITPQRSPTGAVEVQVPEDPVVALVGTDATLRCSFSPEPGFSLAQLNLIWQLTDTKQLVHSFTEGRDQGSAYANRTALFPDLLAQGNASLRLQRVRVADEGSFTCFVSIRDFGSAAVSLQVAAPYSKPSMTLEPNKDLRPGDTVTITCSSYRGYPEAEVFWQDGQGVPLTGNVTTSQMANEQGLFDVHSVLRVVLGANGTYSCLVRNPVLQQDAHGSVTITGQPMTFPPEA


Target: T1, B7H3
Assay: ELISA or FCM (Example 2)

| Binder | binding result |
| --- | --- |
| Ly2136 (other, Tri-specific antibody: B7H3 Fabs, central CD3 Fv, terminal CD28 Fv; Flexible linker is (G4S)5) chain 1: QVQLVQSGAEVKKPGASVKVSCKASGYTFTSYVMHWVRQKPGQGLEWIGYINPYNEGTESTDKFKGRATMTSDKSTSTVYMELSSLRSEDTAVYYCASIYYGYEGTYFGVWGQGTLVTVSSASTKGPSVFPLAPSSKSTSGGTAALGCLVKDYFPEPVTVSWNSGALTSGVHTFPAVLQSSGLYSLSSVVTVPSSSLGTQTYICNVNHKPSNTKVDKKVEPKSCGGGGSGGGGSGGGGSGGGGSGGGGSEVQLVESGGGLVQPGGSLRLSCAASGFTFSTYAMNWVRQAPGKGLEWVGRIRSKYNNYATYYADSVKGRFTISRDDSKNSLYLQMNSLKTEDTAVYYCVRHGNFGNSYVSWFAYWGQGTLVTVSSGGGGSDKTHTCPPCPAPEAAGPSVFLFPPKPKDTLMISRTPEVTCVVVDVSHEDPEVKFNWYVDGVEVHNAKTKPREEQYNSTYRVVSVLTVLHQDWLNGKEYKCKVSNKALPAPIEKTISKAKGQPREPQVYTLPPSREEMTKNQVSLWCLVKGFYPSDIAVEWESNGQPENNYKTTPPVLDSDGSFFLYSKLTVDKSRWQQGNVFSCSVMHEALHNHYTQKSLSLSPGGGGGSGGGGSGGGGSGGGGSQVQLVQSGAEVKKPGASVKVSCKASGYTFTSYYIHWVRQAPGQGLEWIGCIYPGNVNTNYNEKFKDRATLTVDTSISTAYMELSRLRSDDTAVYFCTRSHYGLDWNFDVWGQGTTVTVSS chain 2: QVQLVQSGAEVKKPGASVKVSCKASGYTFTSYVMHWVRQKPGQGLEWIGYINPYNEGTESTDKFKGRATMTSDKSTSTVYMELSSLRSEDTAVYYCASIYYGYEGTYFGVWGQGTLVTVSSASTKGPSVFPLAPSSKSTSGGTAALGCLVKDYFPEPVTVSWNSGALTSGVHTFPAVLQSSGLYSLSSVVTVPSSSLGTQTYICNVNHKPSNTKVDKKVEPKSCGGGGSGGGGSGGGGSGGGGSGGGGSQAVVTQEPSLTVSPGGTVTLTCRSSTGAVTTSNYANWVQQKPGQAPRGLIGGTNKRAPWTPARFSGSLLGGKAALTITGAQAEDEADYYCALWYSNLWVFGGGTKLTVLGGGGSDKTHTCPPCPAPEAAGPSVFLFPPKPKDTLMISRTPEVTCVVVDVSHEDPEVKFNWYVDGVEVHNAKTKPREEQYNSTYRVVSVLTVLHQDWLNGKEYKCKVSNKALPAPIEKTISKAKGQPREPQVYTLPPSREEMTKNQVSLSCAVKGFYPSDIAVEWESNGQPENNYKTTPPVLDSDGSFFLVSKLTVDKSRWQQGNVFSCSVMHEALHNRFTQKSLSLSPGGGGGSGGGGSGGGGSGGGGSDIQMTQSPSSLSASVGDRVTITCHASQNIYVWLNWYQQKPGKAPKLLIYKASNLHTGVPSRFSGSGSGTDFTLTISSLQPEDFATYYCQQGQTYPYTFGGGTKVEIK light: EIVLTQSPATLSLSPGERATLSCRASSSVSYMHWYQQKPGQAPRPWIYATSNLASGIPARFSGSRSGTDYTLTISSLEPEDFAVYYCQQWSSNTLTFGGGTKVEIKRTVAAPSVFIFPPSDEQLKSGTASVVCLLNNFYPREAKVQWKVDNALQSGNSQESVTEQDSKDSTYSLSSTLTLSKADYEKHKVYACEVTHQGLSSPVTKSFNRGEC | binds |
| Ly2128 (other, Tri-specific antibody: B7H3 Fabs, central CD3 Fv, terminal CD28 Fv; Flexible linker is (G4S)4) chain 1: QVQLVQSGAEVKKPGASVKVSCKASGYTFTSYVMHWVRQKPGQGLEWIGYINPYNEGTESTDKFKGRATMTSDKSTSTVYMELSSLRSEDTAVYYCASIYYGYEGTYFGVWGQGTLVTVSSASTKGPSVFPLAPSSKSTSGGTAALGCLVKDYFPEPVTVSWNSGALTSGVHTFPAVLQSSGLYSLSSVVTVPSSSLGTQTYICNVNHKPSNTKVDKKVEPKSCGGGGSGGGGSGGGGSGGGGSEVQLVESGGGLVQPGGSLRLSCAASGFTFSTYAMNWVRQAPGKGLEWVGRIRSKYNNYATYYADSVKGRFTISRDDSKNSLYLQMNSLKTEDTAVYYCVRHGNFGNSYVSWFAYWGQGTLVTVSSGGGGSDKTHTCPPCPAPEAAGPSVFLFPPKPKDTLMISRTPEVTCVVVDVSHEDPEVKFNWYVDGVEVHNAKTKPREEQYNSTYRVVSVLTVLHQDWLNGKEYKCKVSNKALPAPIEKTISKAKGQPREPQVYTLPPSREEMTKNQVSLWCLVKGFYPSDIAVEWESNGQPENNYKTTPPVLDSDGSFFLYSKLTVDKSRWQQGNVFSCSVMHEALHNHYTQKSLSLSPGGGGGSGGGGSGGGGSGGGGSQVQLVQSGAEVKKPGASVKVSCKASGYTFTSYYIHWVRQAPGQGLEWIGCIYPGNVNTNYNEKFKDRATLTVDTSISTAYMELSRLRSDDTAVYFCTRSHYGLDWNFDVWGQGTTVTVSS chain 2: QVQLVQSGAEVKKPGASVKVSCKASGYTFTSYVMHWVRQKPGQGLEWIGYINPYNEGTESTDKFKGRATMTSDKSTSTVYMELSSLRSEDTAVYYCASIYYGYEGTYFGVWGQGTLVTVSSASTKGPSVFPLAPSSKSTSGGTAALGCLVKDYFPEPVTVSWNSGALTSGVHTFPAVLQSSGLYSLSSVVTVPSSSLGTQTYICNVNHKPSNTKVDKKVEPKSCGGGGSGGGGSGGGGSGGGGSQAVVTQEPSLTVSPGGTVTLTCRSSTGAVTTSNYANWVQQKPGQAPRGLIGGTNKRAPWTPARFSGSLLGGKAALTITGAQAEDEADYYCALWYSNLWVFGGGTKLTVLGGGGSDKTHTCPPCPAPEAAGPSVFLFPPKPKDTLMISRTPEVTCVVVDVSHEDPEVKFNWYVDGVEVHNAKTKPREEQYNSTYRVVSVLTVLHQDWLNGKEYKCKVSNKALPAPIEKTISKAKGQPREPQVYTLPPSREEMTKNQVSLSCAVKGFYPSDIAVEWESNGQPENNYKTTPPVLDSDGSFFLVSKLTVDKSRWQQGNVFSCSVMHEALHNRFTQKSLSLSPGGGGGSGGGGSGGGGSGGGGSDIQMTQSPSSLSASVGDRVTITCHASQNIYVWLNWYQQKPGKAPKLLIYKASNLHTGVPSRFSGSGSGTDFTLTISSLQPEDFATYYCQQGQTYPYTFGGGTKVEIK light: EIVLTQSPATLSLSPGERATLSCRASSSVSYMHWYQQKPGQAPRPWIYATSNLASGIPARFSGSRSGTDYTLTISSLEPEDFAVYYCQQWSSNTLTFGGGTKVEIKRTVAAPSVFIFPPSDEQLKSGTASVVCLLNNFYPREAKVQWKVDNALQSGNSQESVTEQDSKDSTYSLSSTLTLSKADYEKHKVYACEVTHQGLSSPVTKSFNRGEC | binds |
| Ly2137 (other, Tri-specific antibody: B7H3 Fabs, central CD3 Fv, terminal CD28 Fv; Flexible linker is (G4S)3) chain 1: QVQLVQSGAEVKKPGASVKVSCKASGYTFTSYVMHWVRQKPGQGLEWIGYINPYNEGTESTDKFKGRATMTSDKSTSTVYMELSSLRSEDTAVYYCASIYYGYEGTYFGVWGQGTLVTVSSASTKGPSVFPLAPSSKSTSGGTAALGCLVKDYFPEPVTVSWNSGALTSGVHTFPAVLQSSGLYSLSSVVTVPSSSLGTQTYICNVNHKPSNTKVDKKVEPKSCGGGGSGGGGSGGGGSEVQLVESGGGLVQPGGSLRLSCAASGFTFSTYAMNWVRQAPGKGLEWVGRIRSKYNNYATYYADSVKGRFTISRDDSKNSLYLQMNSLKTEDTAVYYCVRHGNFGNSYVSWFAYWGQGTLVTVSSGGGGSDKTHTCPPCPAPEAAGPSVFLFPPKPKDTLMISRTPEVTCVVVDVSHEDPEVKFNWYVDGVEVHNAKTKPREEQYNSTYRVVSVLTVLHQDWLNGKEYKCKVSNKALPAPIEKTISKAKGQPREPQVYTLPPSREEMTKNQVSLWCLVKGFYPSDIAVEWESNGQPENNYKTTPPVLDSDGSFFLYSKLTVDKSRWQQGNVFSCSVMHEALHNHYTQKSLSLSPGGGGGSGGGGSGGGGSGGGGSQVQLVQSGAEVKKPGASVKVSCKASGYTFTSYYIHWVRQAPGQGLEWIGCIYPGNVNTNYNEKFKDRATLTVDTSISTAYMELSRLRSDDTAVYFCTRSHYGLDWNFDVWGQGTTVTVSS chain 2: QVQLVQSGAEVKKPGASVKVSCKASGYTFTSYVMHWVRQKPGQGLEWIGYINPYNEGTESTDKFKGRATMTSDKSTSTVYMELSSLRSEDTAVYYCASIYYGYEGTYFGVWGQGTLVTVSSASTKGPSVFPLAPSSKSTSGGTAALGCLVKDYFPEPVTVSWNSGALTSGVHTFPAVLQSSGLYSLSSVVTVPSSSLGTQTYICNVNHKPSNTKVDKKVEPKSCGGGGSGGGGSGGGGSQAVVTQEPSLTVSPGGTVTLTCRSSTGAVTTSNYANWVQQKPGQAPRGLIGGTNKRAPWTPARFSGSLLGGKAALTITGAQAEDEADYYCALWYSNLWVFGGGTKLTVLGGGGSDKTHTCPPCPAPEAAGPSVFLFPPKPKDTLMISRTPEVTCVVVDVSHEDPEVKFNWYVDGVEVHNAKTKPREEQYNSTYRVVSVLTVLHQDWLNGKEYKCKVSNKALPAPIEKTISKAKGQPREPQVYTLPPSREEMTKNQVSLSCAVKGFYPSDIAVEWESNGQPENNYKTTPPVLDSDGSFFLVSKLTVDKSRWQQGNVFSCSVMHEALHNRFTQKSLSLSPGGGGGSGGGGSGGGGSGGGGSDIQMTQSPSSLSASVGDRVTITCHASQNIYVWLNWYQQKPGKAPKLLIYKASNLHTGVPSRFSGSGSGTDFTLTISSLQPEDFATYYCQQGQTYPYTFGGGTKVEIK light: EIVLTQSPATLSLSPGERATLSCRASSSVSYMHWYQQKPGQAPRPWIYATSNLASGIPARFSGSRSGTDYTLTISSLEPEDFAVYYCQQWSSNTLTFGGGTKVEIKRTVAAPSVFIFPPSDEQLKSGTASVVCLLNNFYPREAKVQWKVDNALQSGNSQESVTEQDSKDSTYSLSSTLTLSKADYEKHKVYACEVTHQGLSSPVTKSFNRGEC | binds |
